Data taken from US10647965B2, “Hetero-transglycosylase and uses thereof” (BASF SE, priority 2013, dated 2020).

Tested on: OC[C@@H](O)[C@@H](O[C@@H]1O[C@H](CO[C@H]2OC[C@@H](O)[C@H](O)[C@H]2O)[C@@H](O[C@@H]2O[C@H](CO[C@H]3OC[C@@H](O)[C@H](O)[C@H]3O)[C@@H](O[C@@H]3O[C@H](CO[C@H]4OC[C@@H](O)[C@H](O)[C@H]4O)[C@@H](O)[C@H](O)[C@H]3O)[C@H](O)[C@H]2O)[C@H](O)[C@H]1O)[C@H](O)[C@@H](O)CO
Test: purified protein, by the assay type
Settings: pH 6.0

Equisetum fluviatile HTG (hetero-transglycosylase), recombinant, amino acids 22 to 280 of SEQ ID NO: 2, expressed in Pichia pastoris as fusion protein SEQ ID NO: 4 (α-factor signal sequence, c-myc epitope, polyhistidine tag) (Equisetum fluviatile)
Km (other: mixed-linkage glucan as donor-substrate): 0.52 ± 0.06 µM | Km (other: xyloglucan as donor-substrate): 3.4 ± 0.4 µM
